Measured values published in patent EP4821941A1, “BRAIN-TARGETING PEPTIDE, TRANSPORT CARRIER, AND METHOD FOR SCREENING PEPTIDE BINDING TO TARGET CELL” (dated 2026).

Experiments:
[1] = system: Whole cerebrum; test: In vivo panning of a phage display peptide library in mice, next-generation sequencing read counts (whole cerebrum); details: after third round of in vivo panning; phage library 1×10^11 cfu via tail vein; tissues collected five minutes after administration
[2] = system: Cortical neurons; test: In vivo panning of a phage display peptide library in mice, next-generation sequencing read counts (cortical neurons); details: after third round of in vivo panning; phage library 1×10^11 cfu via tail vein; cells collected by laser capture microdissection

SMILES	Number of reads Whole cerebrum [1]	Number of reads Cortical neurons [2]
CC(C)[C@H](NC(=O)[C@@H](N)CCC(=O)O)C(=O)NCC(=O)N[C@H](C(=O)N[C@@H](C)C(=O)N[C@@H](CCCNC(=N)N)C(=O)N[C@@H](Cc1ccc(O)cc1)C(=O)O)[C@@H](C)O	41	135
CC[C@H](C)[C@H](NC(=O)CNC(=O)[C@H](CO)NC(=O)[C@@H](NC(=O)[C@@H](NC(=O)[C@@H](NC(=O)[C@@H](N)CCCCN)C(C)C)[C@@H](C)O)[C@@H](C)O)C(=O)O	23	216
CC(C)C[C@H](NC(=O)[C@@H](N)Cc1c[nH]cn1)C(=O)N[C@@H](CC(=O)O)C(=O)N[C@@H](CO)C(=O)N[C@H](C(=O)N1CCC[C@H]1C(=O)N[C@@H](Cc1c[nH]cn1)C(=O)O)[C@@H](C)O	140	247
